Laboratory results taken from patent publication US20080027010A1, “Treatment of refractory cancers using Na+/K+-ATPase inhibitors” (Bionaut Pharmaceuticals, Inc., priority 2004, published 2008).

Experiments:
rats = test: Oral LD50 in rats; conditions: p.o.
[1] = 3.5 mg/d once, 1.5 mg for two days, 1 mg/d thereafter; cited from earlier work
Na^+/K^+-ATPase = biological target: T1, Na^+/K^+-ATPase (Canis lupus familiaris, UniProt P50997); test: Na+/K+-ATPase inhibition, enzyme preparation from dog kidney (Sigma); format: biochemical
T1 construct: enzyme preparation from dog kidney (Sigma); purchased Sigma; host or cells: dog kidney tissue
Protocol: The relative activity of the bufadienolide class of cardiac glycosides was determined to be much greater then cardenolide class, Anti-prolerafitive IC50 values were determined by MTS assay using an A549 cell line. Na^+/K^+-ATPase inhibition IC50 values were obtained using enzyme preparation from dog kidney (Sigma).

**Q.** With `C[C@@H]1OC(OC2C=C3CCC4C(CC[C@]5(C)[C@@H](c6ccc(=O)oc6)CC[C@]45O)[C@@]3(C)CC2)[C@H](O)[C@H](O)[C@H]1O` (stereo partly drawn) [BNC-4, proscillaridin] as the molecule, how does the “toxicity relative to Digitoxin” value (rats) read?
**A.** about half as toxic as Digitoxin

**Q.** And the “time to achieve the optimal therapeutic level” value [1]?
**A.** about 60 hours

**Q.** What about the “potency relative to BNC-151, inhibition of Na^+/K^+-ATPase” value (Na^+/K^+-ATPase) of the same molecule?
**A.** about 10 times
